We go through four compounds from patent publication US20240150300A1, “S-CONFIGURATION-CONTAINING AMINO BENZAMIDE PYRIDAZINONE COMPOUND, PREPARATION METHOD THEREFOR, AND PHARMACEUTICAL COMPOSITION AND APPLICATION THEREOF” (SHANGHAI INSTITUTE OF MATERIA MEDICA, CHINESE ACADEMY OF …, priority 2021, published 2024).

pIC50: −log10 of the molar value.

In one assay the test system is SKM-1 cells. Kind of assay: Antiproliferative activity, CCK-8, SKM-1. To be noted: read-out: SKM-1 IC50, 72 h.
A further assay deals with HCT-116 cells. Kind of assay: Antiproliferative activity, CCK-8, HCT-116. To be noted: read-out: HCT-116 IC50, 72 h.

For the compound `C[C@H](c1ccc(C(=O)Nc2ccccc2N)cc1)n1nc(-c2ccc(CN(C)C)cc2)ccc1=O`, the figures for the pIC50 in the assay with SKM-1 cells and in the assay on HCT-116 cells were 6.54 and 6.52, respectively. For `C[C@H](c1ccc(C(=O)Nc2ccccc2N)cc1)n1nc(-c2ccccc2)ccc1=O`, the pIC50 (usually the IC50 on a negative log10 scale, so that one unit is a factor of ten) in the assay on HCT-116 cells was 5.94. On to `CC(c1ccc(C(=O)Nc2ccccc2N)cc1)n1nc(-c2cccc(Cl)c2)ccc1=O` (racemic), for which the pIC50 is 6.31 in the assay on SKM-1 cells and 6.19 in the assay on HCT-116 cells.

As to `COc1cccc(-c2ccc(=O)n(C(C)c3ccc(C(=O)Nc4ccccc4N)cc3)n2)c1` (racemic), the pIC50 in the assay on SKM-1 cells was 6.62; with HCT-116 cells, 6.47.
